This is a selection; strong and weak results do not stand in their true shares. Activity calls are given as the source filed them.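 The calls were made as follows: active = more than half of a compound's replicate wells show inhibition beyond 50%, single wells judged on their own value; inconclusive = some, but no more than half, of replicates pass 50% inhibition; inactive = no replicate passes 50% inhibition.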

By UniProt entry, the sequences of proteins in these tests, tags left out. Residues count along the entry.
UniProt Q9H3R0, 1-420 limits assumed: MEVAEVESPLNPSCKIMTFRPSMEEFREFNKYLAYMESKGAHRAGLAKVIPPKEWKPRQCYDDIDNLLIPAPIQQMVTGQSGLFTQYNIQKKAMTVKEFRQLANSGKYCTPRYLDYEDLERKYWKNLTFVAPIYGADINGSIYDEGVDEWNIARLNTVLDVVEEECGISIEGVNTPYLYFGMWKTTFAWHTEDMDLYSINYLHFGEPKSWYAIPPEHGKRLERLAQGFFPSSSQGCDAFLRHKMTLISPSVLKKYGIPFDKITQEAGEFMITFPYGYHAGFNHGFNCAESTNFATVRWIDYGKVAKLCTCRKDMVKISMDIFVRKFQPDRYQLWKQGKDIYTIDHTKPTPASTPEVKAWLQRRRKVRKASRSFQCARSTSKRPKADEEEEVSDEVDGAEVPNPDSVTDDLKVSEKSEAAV

This experiment addresses Lysine-specific demethylase 4C (Homo sapiens) (UniProt Q9H3R0). The experiment is described as follows: JMJD2C H3K9me3 demethylation blockers – biochemical, fluorescence, DELFIA europium, primary screen (AID 2099).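 Also: signal counts dimethyl H3K9 product captured on neutravidin plate; 0% = median of DMSO wells and 100% = 0.3 times that DMSO median.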 To be noted: GST-JMJD2C(1-420) H3K9me3 demethylation, at 2.35 µM, active compounds read high.
In the case of `O=[N+]([O-])c1ccc2c(c1)C=Nc1ccccc1O2`, the inhibition (in general, the change of the read-out against control, counted positive when it falls) is inactive: -1.41%.
As for `Cc1cccc(C)c1OP(C)(N)=O` (configuration not stated), the inhibition is inactive: 1.59%.
On to `CC(C)(C)c1ccc(OP(C)(=O)Nc2ccc(SC(F)(F)F)cc2)cc1` (configuration not stated), for which the inhibition is inactive: -6.6%.
In the case of `O=[N+]([O-])c1cc([N+](=O)[O-])c(Nc2cccnc2)c([N+](=O)[O-])c1`, the inhibition is inactive: -2.72%.
For the compound `Cc1cc(C)cc(OP(C)(N)=O)c1` (configuration not stated), the inhibition is inactive: -2.9%.
As for `COc1ccc(OP(C)(=O)Nc2cccc(F)c2)cc1` (configuration not stated), the inhibition is inactive: 1.45%.
As for `COc1ccccc1OP(C)(=O)Nc1cc(Cl)ccc1C` (configuration not stated), the inhibition is inactive: 1.25%.
For `Cc1ccc(NP(C)(=O)Oc2ccccc2)c(C)c1` (configuration not stated), the inhibition was inactive: 29.2%.
With `COc1ccccc1OP(C)(=O)Nc1ccc(C)cc1` (configuration not stated), the inhibition is inactive: -47.7%.
The same measure for `CCOC(=O)c1ccc(NP(C)(=O)Oc2ccccc2)cc1` (configuration not stated): inactive: 6.55%; for `CCN(CC)CCCOC(=O)C(O)(c1ccccc1)c1ccccc1`: inactive: -0.535%.
Regarding `Cc1cc(C)cc(OP(C)(=O)Nc2ccc(SC(F)(F)F)cc2)c1` (configuration not stated), the inhibition was inactive: 5.1%.
The same measure for `CCc1ccc(OP(C)(=O)N2CCN(c3ccc([N+](=O)[O-])cc3)CC2)cc1` (configuration not stated): inactive: 16.5%; for `CP(=O)(NC(=O)Nc1ccccc1)Oc1ccccc1` (configuration not stated): inactive: 4.47%; for `CP(=O)(Oc1ccccc1)OC(c1ccccc1)C(F)(F)F` (configuration not stated): inactive: -5.79%.
`Cc1cccc(C)c1OP(C)(=O)Nc1ccc(SC(F)(F)F)cc1` (configuration not stated): the inhibition was inactive: 2.79%.
Regarding `CP(=O)(Nc1ccc(SC(F)(F)F)cc1)Oc1ccc(Cl)cc1` (configuration not stated), the inhibition was inactive: 1.17%.
Consider `CP(=O)(Nc1ccccn1)Oc1ccc(Cl)cc1` (configuration not stated), for which the inhibition is inactive: -6.55%.
For `CCOC(=O)c1ccc(NP(C)(=O)Oc2ccc(OC)cc2)cc1` (configuration not stated), the inhibition is inactive: 5.31%.
On to `O=[N+]([O-])c1cc([N+](=O)[O-])c(O)c([N+](=O)[O-])c1.c1ccc(Oc2ccncc2)cc1`, for which the inhibition is inactive: 13.9%.
On to `CCOP(C)(=S)SCC(=O)NC(C)C(=O)O` (configuration not stated), for which the inhibition was inactive: 3.52%.
Regarding `CP(=O)(Nc1ccccc1Br)Oc1ccccc1` (configuration not stated), the inhibition was inactive: -9.1%.
On to `COc1ccccc1OP(C)(=O)Nc1ccccc1` (configuration not stated), for which the inhibition is inactive: -14.3%.
In the case of `CP(=S)(Nn1cnnc1)Oc1ccccc1` (configuration not stated), the inhibition is inactive: 3.78%.
In the case of `CCOC(=O)C(CC)C1=NC(C)(C)Cc2ccccc21.O=[N+]([O-])c1cc([N+](=O)[O-])c(O)c([N+](=O)[O-])c1` (configuration not stated) it was inactive: 1.67%.
Regarding `O=[N+]([O-])c1cc([N+](=O)[O-])c(Nc2nnnn2CCO)c([N+](=O)[O-])c1`, the inhibition is inactive: 4.9%.
As to `CP(=O)(Nc1ccc(SC(F)(F)F)cc1)Oc1ccccc1` (configuration not stated), the inhibition is inactive: 9.75%.

Values taken from PubChem BioAssay AID2099 (Broad Institute, 2009).
